Laboratory results as given in ChEMBL document CHEMBL1122178, “N-Methylnalorphine: definition of N-allyl conformation for antagonism at the opiate receptor” (J Med Chem, 1982).

Chains of the proteins cited; added tags and fusions are not shown. Lines headed by an entry give the natural chain unless they say otherwise; changes in a name come on top.
UniProt P42866: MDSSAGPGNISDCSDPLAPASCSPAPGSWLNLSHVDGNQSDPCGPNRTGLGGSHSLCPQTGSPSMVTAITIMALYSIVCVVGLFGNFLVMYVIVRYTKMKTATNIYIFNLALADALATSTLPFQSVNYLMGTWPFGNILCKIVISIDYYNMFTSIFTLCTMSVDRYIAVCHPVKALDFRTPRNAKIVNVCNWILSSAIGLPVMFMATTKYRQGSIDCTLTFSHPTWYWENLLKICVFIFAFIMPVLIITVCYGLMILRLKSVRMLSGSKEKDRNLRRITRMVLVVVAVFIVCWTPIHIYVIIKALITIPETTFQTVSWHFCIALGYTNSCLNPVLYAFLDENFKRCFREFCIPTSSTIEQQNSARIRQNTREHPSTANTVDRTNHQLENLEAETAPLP
UniProt P32300: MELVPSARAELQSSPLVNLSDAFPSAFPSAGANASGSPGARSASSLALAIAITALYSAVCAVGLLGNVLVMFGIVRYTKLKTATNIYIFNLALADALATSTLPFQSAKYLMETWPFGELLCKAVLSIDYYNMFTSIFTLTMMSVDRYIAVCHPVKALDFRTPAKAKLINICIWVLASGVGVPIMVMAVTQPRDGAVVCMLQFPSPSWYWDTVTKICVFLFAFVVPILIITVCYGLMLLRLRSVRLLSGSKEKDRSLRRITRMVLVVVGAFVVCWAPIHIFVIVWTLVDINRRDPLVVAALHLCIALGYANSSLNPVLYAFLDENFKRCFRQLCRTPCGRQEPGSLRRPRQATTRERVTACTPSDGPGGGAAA
UniProt P33534: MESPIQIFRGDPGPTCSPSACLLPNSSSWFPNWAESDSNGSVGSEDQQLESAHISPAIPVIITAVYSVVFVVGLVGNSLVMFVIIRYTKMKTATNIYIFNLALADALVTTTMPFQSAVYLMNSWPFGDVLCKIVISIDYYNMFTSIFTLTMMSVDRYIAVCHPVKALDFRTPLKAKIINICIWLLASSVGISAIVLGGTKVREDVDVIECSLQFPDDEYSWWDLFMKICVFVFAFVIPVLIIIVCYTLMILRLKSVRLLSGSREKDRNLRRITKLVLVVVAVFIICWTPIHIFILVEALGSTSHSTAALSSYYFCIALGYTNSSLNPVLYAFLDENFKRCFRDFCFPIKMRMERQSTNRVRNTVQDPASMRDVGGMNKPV

How the values were obtained:
Opioid receptor [1] = biological target: T1, Opioid receptor (Mus musculus, UniProt P42866+P32300+P33534); assay: Concentration required to inhibit the stereospecific [3H]diprenorphine binding Opioid receptors in the presence of sodium(Na+) was determined in mouse isolated vas deferens; assay type: protein assay
Opioid receptor [2] = biological target: T1, Opioid receptor; assay: Concentration required to inhibit the stereospecific [3H]diprenorphine binding Opioid receptors in the absence of sodium(Na+) was determined in mouse isolated vas deferens; assay type: protein assay

C=CCN1CC[C@]23c4c5ccc(O)c4O[C@H]2[C@@H](O)C=C[C@H]3[C@H]1C5 [NALORPHINE]
IC50 (Opioid receptor [1]): 160 nM | IC50 (Opioid receptor [2]): 59 nM
